Assay results from ChEMBL document CHEMBL5550134, “An insight into the pharmacology of cysteine/methionine containing peptide drugs” (Eur J Med Chem, 2024).

Experiments:
[1] = Subcutaneous bioavailability in human; conditions: in vivo, sc
[2] = Half life in human; assay type: ADME

- subcutaneous bioavailability [1]: 30%
- half-life [2]: 48 min
Structure (SMILES): CC[C@H](C)[C@H](NC(=O)[C@@H]1CCCN1C(=O)CNC(=O)[C@H](Cc1ccccc1)NC(=O)[C@H](CC(N)=O)NC(=O)[C@H](CC(N)=O)NC(=O)[C@H](CO)NC(=O)[C@H](CO)NC(=O)[C@H](Cc1c[nH]cn1)NC(=O)[C@@H](NC(=O)[C@H](CC(C)C)NC(=O)[C@H](Cc1ccccc1)NC(=O)[C@H](CC(N)=O)NC(=O)[C@H](C)NC(=O)[C@H](CC(C)C)NC(=O)[C@H](CCCNC(=N)N)NC(=O)[C@H](CCC(N)=O)NC(=O)[C@@H](NC(=O)[C@H](C)NC(=O)[C@@H]1CSSC[C@H](NC(=O)[C@@H](N)CCCCN)C(=O)N[C@@H](CC(N)=O)C(=O)N[C@@H]([C@@H](C)O)C(=O)N[C@@H](C)C(=O)N[C@@H]([C@@H](C)O)C(=O)N1)[C@@H](C)O)C(C)C)C(=O)N[C@@H](CC(C)C)C(=O)N1CCC[C@H]1C(=O)N1CCC[C@H]1C(=O)N[C@H](C(=O)N[C@@H](CC(N)=O)C(=O)N[C@H](C(=O)NCC(=O)N[C@@H](CO)C(=O)N[C@@H](CC(N)=O)C(=O)N[C@H](C(=O)N[C@@H](Cc1ccc(O)cc1)C(N)=O)[C@@H](C)O)C(C)C)[C@@H](C)O [PRAMLINTIDE]
